Assay results: US8946382B2, “Apelin peptides and methods of use” (The United States of America, as represented by the …, priority 2009, dated 2015)

Legend:
[1] = test system: human blood vessel endothelial (HMEC-1) cells; assay: Proliferation assay (ATPLITE), HMEC-1; format: cell-based; conditions: FIG. 13A, listed as apelin-13(F13A)
Source text: (§1) Proliferation response profiles of apelin, salcut-NH2, salcut-Gly, and/or salcut-OH on a variety of endothelial and tumor cell lines or primary endothelial cells were obtained using the following method. Human blood vessel endothelial cells (HMEC-1), human primary microvascular dermal EC (dB1), human lymphatic endothelial cells (LEC), human mast cells (HMC-1), human breast cancer cells (MCF-7; T47D), human gastric cancer cells (HTB 103), human lung cancer cells (A549), monkey endothelial cells (CRL 1780), and porcine aortic endothelial cells (PAE) were seeded at 25,000 cells per well at 50 μl volume in appropriate media containing 0.5% serum in a 96 well plate. After overnight incubation the peptide was added in serum free media and cells were incubated for 3-5 days. To measure growth proliferation, the adenosine triphosphate ATPLITE™ one-step assay (PerkinElmer), which is based on firefly luciferase and has high sensitivity for quantification of viable cells, was used. Data were expressed as mean plus minus standard deviation. Statistical analyses were performed using Student's t-test, p values less than 0.05 were considered statistically significant.
(§2) Endothelial cell proliferation assays were performed as described above with both spontaneously immortalized porcine aortic endothelial (PAE) cells and SV40 immortalized human dermal microvascular endothelial (HMEC-1).

APJ receptor = molecular target: T1, APJ receptor (Homo sapiens, UniProt P35414); conditions: cited from earlier work
T1 sequence (P35414 1-380): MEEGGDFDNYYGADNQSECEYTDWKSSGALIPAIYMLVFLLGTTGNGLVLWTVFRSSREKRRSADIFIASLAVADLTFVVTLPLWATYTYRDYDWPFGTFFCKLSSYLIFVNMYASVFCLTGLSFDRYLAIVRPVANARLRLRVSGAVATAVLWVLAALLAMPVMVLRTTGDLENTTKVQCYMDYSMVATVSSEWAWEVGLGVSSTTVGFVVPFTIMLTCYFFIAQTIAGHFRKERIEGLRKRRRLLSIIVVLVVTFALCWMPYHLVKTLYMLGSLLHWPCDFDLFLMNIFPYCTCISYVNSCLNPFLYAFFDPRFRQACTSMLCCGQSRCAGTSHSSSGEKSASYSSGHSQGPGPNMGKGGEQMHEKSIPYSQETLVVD

[2] = test system: porcine aortic endothelial (PAE) cells; conditions: FIG. 13B, listed as apelin-13(F13A)
Source text: as §1, §2

(Ala13)-apelin-13
effect of APJ antagonist on Salcut-NH2 regulated proliferation [1]: but not salcut-NH2 mediated growth; also recorded: is not blocked by apelin-13(F13A) | effect of APJ antagonist on apelin-13 mediated proliferation [1]: blocks apelin-13 induced proliferation; also recorded: selectively inhibits apelin-13 mediated proliferation | stimulation of APJ receptor activity (APJ receptor; Lee et al. 2005): does not stimulate APJ receptor activity | binding to the APJ receptor (APJ receptor): binds to the APJ receptor | effect of APJ antagonist on apelin-13 mediated proliferation [2]: blocks apelin-13 induced proliferation; also recorded: selectively inhibits apelin-13 mediated proliferation

“Also recorded” adds a separate entry of the source.
